From paper PMC9405135, “Tuning the Biological Activity of Camphorimine Complexes through Metal Selection” (Antibiotics, 2022) come the findings set out here.

Data set [1] is described as follows: Reduction potential by cyclic voltammetry. In kind it is physicochemical. The settings on record: Bu4NBF4/CH3CN electrolyte, ±10 mV, versus SCE.
Another data set concerns ΦX174 supercoiled DNA. The data set is described as follows: Complex-DNA interaction, agarose gel electrophoretic mobility. The conditions noted are these: 0.5-15 µM complex, 24 h at 37 °C. In kind it is binding. Here is the method: Therefore, we focused our studies mostly on the silver (5 and 7) and gold complexes (8 and 9) having the monocamphor ligands ^1A and ^2A, respectively. Complex 1 was also included for comparison. We evaluated the complexes’ ability to interact with DNA, by visualizing in vitro conformational changes in ΦX174 supercoiled DNA using agarose gel electrophoresis assays.
The DNA binding activity of the metal complexes was assessed through their ability to alter the electrophoretic mobilities of the covalently closed circular (ccc) and open circular (oc) forms of ΦX174 supercoiled DNA as previously described. Briefly, a mixture containing 200 ng of ϕX174 DNA (Promega, Madison, WI, USA) and different concentrations of the metal complexes was prepared. After incubation for 24 h at 37 °C in the dark, the samples were run in a 0.8% agarose gel in TAE buffer for 3 h at 90 V. The gel obtained was then stained using a 3× GelRed® (Biotium, Fremont, CA, USA) solution in H2O and imaged in an AlphaImagerEP (Alpha Innotech, San Leandro, CA, USA).

The test system of another data set is V79 fibroblasts. The data set is described as follows: MTT cytotoxicity, V79 normal fibroblasts. The settings on record: read-out: IC50 V79, 24 h incubation.
In another data set the test system is HDF fibroblasts. The data set is described as follows: MTT cytotoxicity, HDF normal fibroblasts. The settings on record: read-out: IC50 HDF, 24 h incubation.
A further data set has as its system A2780 cells. Description: MTT cytotoxicity, A2780 ovarian cancer cells. The settings on record: read-out: IC50 A2780, 24 h incubation.
Data set [2] relates to OVCAR3 cells. Description: MTT cytotoxicity, OVCAR3 ovarian cancer cells. The conditions noted are these: for SI = selectivity index = IC50(HDF)/IC50(OVCAR3): HDF versus OVCAR3, 24 h; for IC50: read-out: IC50 OVCAR3, MTT, 24 h incubation.
Data set [3] concerns OVCAR3 cells. Description: Lipid peroxidation (MDA, TBARS) assay. In kind it is cell-based, human. The conditions noted are these: OVCAR3 cells treated 6 h; 1 at 100 μM, 5 at 50 μM, 9 at 20 μM; mean ± SD. Here is the method: Measurement of MDA relies on the detection of thiobarbituric acid (TBA)-reactive compounds generated from the decomposition of lipid peroxidation products. This reaction, which takes place under acidic conditions at 95 °C, results in the formation of an MDA–TBA adduct that can be quantified by its absorbance at 532 nm. […] Additionally, the MDA levels induced by the complexes correlated with the levels of ROS, pointing the involvement of ROS production in the mechanism of action of complexes under study and, consequently, the peroxidation of the membrane lipids, as supported by the correlation between the production of ROS and the levels of lipid peroxides, particularly for complexes 5 and 9.
The malondialdehyde (MDA) content in lipid extracts of OVCAR3 cells was measured using a colorimetric kit (BioVision, Milpitas, CA, USA), a method that relies on the reaction with thiobarbituric acid (TBARS assay). Briefly, OVCAR3 cells (5 × 10^5 cells/2 mL medium) were seeded in six-well plates and left to adhere for 24 h. […] The resulting cell pellet was treated following the kit recommended protocol. […] Then, 200 μL aliquots were then taken and transferred to a 96-well plate for MDA quantification at 532 nm. […]

For data set [4], the system named is OVCAR3 cells. Description: Superoxide generation (NBT assay). In kind it is cell-based, human. The settings on record: 1 at 50 and 100 µM, 5 at 20 and 50 µM, 9 at 10 and 20 µM. As for the experimental part:
The ROS species superoxide (O2^•−) can be detected with NBT, a cell-permeant dye that can cross the cell membrane and be reduced by intracellular free radicals (superoxide anions) to form formazan particles, which can be detected as blue precipitates in the cells.
The nitro blue tetrazolium (NBT) assay was carried out adapting a previously described method. This assay was used to determine the ability of cells to produce superoxide anion upon treatment with the compounds. During the treatment, NBT is reduced by superoxide anion, resulting in dark-blue formazan particles. […] Then, the medium was discarded, and the blue formazan particles were dissolved in 200 μL of 90% DMSO (90% DMSO:10% NaOH 0.1 N with 0.1% SDS). The resulting NBT formazan was measured at 560 nm using a plate spectrophotometer.

Data set [5] relates to caspase-3/7 in OVCAR3 cells. The data set is described as follows: Caspase-3/7 activation (Caspase-Glo 3/7 assay). In kind it is cell-based, human. The conditions noted are these: OVCAR3, 24 h, concentrations below IC50. Here is the method: Caspases are a family of cysteine proteases playing central roles in the regulation of cellular processes such as programmed cell death. Among them, caspase-3 and -7 are considered executioners of the apoptosis pathways. We investigated the possible activation of apoptotic events in OVCAR3 cells treated by camphorimine complexes 1, 5, and 9.
The activities of caspase-3 and -7 were assessed using the Caspase-Glo® 3/7 assay (Promega, Madison, WI, USA). The assay kit provides a proluminescent caspase-3/7 substrate (DEVD-aminoluciferin) and luciferase in a reagent optimized for caspase-3/7 activity, luciferase activity, and cell lysis. In the presence of caspase 3/7, this substrate is cleaved, and aminoluciferin is released and consumed by luciferase, which generates a luminescent signal proportional to the caspase activity present in the cells. The assay was carried out in a 96-well plate format with the OVCAR3 cells treated with complexes 1, 5, and 9 for 24 h at concentrations below their IC50 according to a previously described method. […] Results (mean ± SD) were expressed as relative luminescent units (RLU).

Data set [6] has as its system OVCAR3 cells. The data set is described as follows: Total cellular metal uptake by PIXE or ICP-MS. The conditions noted are these: 1 (Cu) 70 µM 24 h PIXE, 5 (Ag) 20 µM 6 h ICP-MS, 9 (Au) 20 µM 6 h PIXE, mean ± SD.
The next data set concerns Caenorhabditis elegans. Description: Toxicity in the in vivo model C. elegans (survival of L4 nematodes).
Data set [7] deals with OVCAR3 cells. The data set is described as follows: Metal distribution in single cells by nuclear microscopy (PIXE). It counts as cell-based, human. The conditions noted are these: 1 at 45 μM 24 h, 9 at 30 μM 3 h. Here is the method: The distribution of copper and gold in treated cells was inspected by nuclear microscopy, making use of the PIXE technique to map and assess elemental contents in single cells. The nuclear microscopy techniques offer several advantages, regarding relatively high spatial resolution and sensitivity for a wide range of elements with physiological roles and those with pharmaceutical interest, in whole cells, while preserving most of their in vivo conditions.
OVCAR3 cells (ca. 1 × 10^6) were prepared for nuclear microscopy experiments by seeding the cells on a 100 nm thick silicon nitride membrane (Silson Ltd., Southam, UK), contained in six-well plates, and incubated overnight as described previously. Cells were incubated with complexes 1 and 9 at concentrations corresponding to the IC50 (45 μM for 24 h and 30 μM for 3 h, respectively). After incubation, the cells were analyzed at the nuclear microscopy facility of the C2TN/IST with a 2.0 MeV proton beam focused down to 3 × 4 µm^2 dimensions. Images of the micro-distributions of Cu and Au in OVCAR3 cells, as well as minor and trace physiological elements (e.g., P, S, K, and Fe), were obtained using the PIXE multielemental technique. Images of whole OVCAR3 cells were taken with 30 × 30 µm^2 scan sizes. Acquisition of data imaging and spectral analysis was performed using OMDAQ 2007 (Oxford Microbeams Ltd., Oxford, UK).

Broadly, the IC50 is the concentration that gives 50% inhibition. Usually LC50 stands for the concentration that kills 50% of the test population.

Where two headings read alike, the source gives them in different places.

Consider K2[{Au(CN)2}2(OC10H14NC6H5)3], for which the “Epred (reduction potential)” value in data set [1] is given as −1.65 Volt. The “interaction with DNA (change of electrophoretic mobility)” value in the data set on ΦX174 supercoiled DNA was “none of them interacted significantly with DNA”. In addition, the IC50 in the data set with V79 fibroblasts worked out at 0.48 µM; in the data set with HDF fibroblasts it was 0.46 µM; in the data set on A2780 cells it was 0.08 µM; in the data set on OVCAR3 cells [2] it was 0.08 µM. Further, the SI = selectivity index = IC50(HDF)/IC50(OVCAR3) in the data set with OVCAR3 cells [2] worked out at 5.7.

Regarding [Ag(NO3)(OC10H14NC6H5)2], in data set [1], the “Epred (reduction potential)” value is listed as 0.12 Volt. For the same substance, in the data set with OVCAR3 cells [3], the “MDA (lipid peroxide content)” value was 1740 ± 270 pmoles/10^6 Cells. Moreover, the “interaction with DNA (change of electrophoretic mobility)” value in the data set on ΦX174 supercoiled DNA is listed as “none of them interacted significantly with DNA”. Besides, the “superoxide ROS levels (NBT reduction)” value in the data set on OVCAR3 cells [4] was “increased the ROS levels in a dose-dependent manner”. Moreover, the caspase-3/7 activation result in [5] was “higher caspase-3 and -7 activation levels”. Further, the IC50 with V79 fibroblasts is over 100 µM; in the data set with HDF fibroblasts, over 100 µM; in the data set with A2780 cells it was 3.53 µM; in the data set on OVCAR3 cells [2], 2.24 µM. For the same substance, the SI = selectivity index = IC50(HDF)/IC50(OVCAR3) in the data set on OVCAR3 cells [2] is over 50. In the data set with OVCAR3 cells [6], the “Total cellular uptake, concentration (ng metal content/10^6 cells)” value is 273 ± 15 ng Metal Content/10^6 Cells. Also, the “concentration at which nematodes progress into adulthood and produce eggs” value in the data set with Caenorhabditis elegans (C. elegans exposed from L4 to adulthood) is listed as at most 5 µM. Further, in the data set with Caenorhabditis elegans (C. elegans, 24 h incubation, visual inspection), the “concentration at which worms swam in a coordinated and fast manner” value is listed as “below 100 µM”. Besides, in the data set with Caenorhabditis elegans (C. elegans, 72 h exposure, control 1% DMSO), the “concentration at which survival rate, body size and movement were similar to control” value is on record as at most 10 µM. In addition, the “toxicity toward C. elegans” value in the data set with Caenorhabditis elegans (at 5 µM) was “nontoxic”. Moreover, the LC50 was 145 µM in the data set on Caenorhabditis elegans (read-out: LC50 at 24 h, C. elegans L4, 24 h exposure); 55.2 µM in the data set with Caenorhabditis elegans (read-out: LC50 at 48 h, C. elegans L4, 48 h exposure); 20.7 µM with Caenorhabditis elegans (read-out: LC50 at 72 h, C. elegans L4, 72 h exposure); 16.1 µM with Caenorhabditis elegans (read-out: LC50 at 96 h, C. elegans L4, 96 h exposure).

For the substance K[Au(CN)2(OC10H14NC6H4NH2)], the “Epred (reduction potential)” value in [1] was −1.85 Volt. Further, in the data set with OVCAR3 cells [3], the “MDA (lipid peroxide content)” value amounted to 1370 ± 210 pmoles/10^6 Cells. Moreover, the “interaction with DNA (change of electrophoretic mobility)” value in the data set with ΦX174 supercoiled DNA is given as “none of them interacted significantly with DNA”. Moreover, the “superoxide ROS levels (NBT reduction)” value in the data set on OVCAR3 cells [4] was “increased the ROS levels in a dose-dependent manner”. For the same substance, the caspase-3/7 activation result in data set [5] was “higher caspase-3 and -7 activation levels”. In the data set with OVCAR3 cells [7], the “cellular distribution of the metal” value was “spread in both the cytoplasm and the nucleus”. The IC50 in the data set with V79 fibroblasts was 0.48 µM; in the data set with HDF fibroblasts, 0.59 µM; with A2780 cells, 0.04 µM; with OVCAR3 cells [2] it was 0.07 µM. Moreover, the SI = selectivity index = IC50(HDF)/IC50(OVCAR3) in the data set with OVCAR3 cells [2] amounted to 8.4. Also, the “Total cellular uptake, concentration (ng metal content/10^6 cells)” value in the data set on OVCAR3 cells [6] is recorded as 688 ± 23 ng Metal Content/10^6 Cells.

Take [Ag(OH)(OC10H14NC6H4NH2)]·CH3COOH: the “Epred (reduction potential)” value in data set [1] is −0.047 Volt. Also, the “interaction with DNA (change of electrophoretic mobility)” value in the data set with ΦX174 supercoiled DNA was “none of them interacted significantly with DNA”. Moreover, the IC50 with V79 fibroblasts was 34.1 µM; in the data set with HDF fibroblasts, over 100 µM; with A2780 cells it was 10.4 µM; in the data set with OVCAR3 cells [2], 8.99 µM.

On to [{Ag(OC10H14NC6H5)}2(μ-O)], for which the “Epred (reduction potential)” value in data set [1] came to 0.00 Volt. The IC50 with V79 fibroblasts worked out at 3.01 µM; in the data set on HDF fibroblasts, 30.6 µM; in the data set with A2780 cells it was 0.66 µM; in the data set on OVCAR3 cells [2] it was 0.63 µM. The SI = selectivity index = IC50(HDF)/IC50(OVCAR3) in the data set with OVCAR3 cells [2] was 49.
